The target of the test is cPLA2 (Homo sapiens, UniProt P47712). As to the kind of experiment: cPLA2 inhibitory activity. In kind it is biochemical. The conditions noted are these: 1-palmitoyl-2-[14C]-arachidonoyl-sn-glycero-3-phosphocholine liposomes, 15 min at 37° C. As for the experimental part:
The compounds of the present invention were tested for the cPLA2 inhibitory activity according to the method disclosed in […]. Roberts, […], and J. E. Putnam, J. Biol. Chem., 1991, 266, 5268-5272 as outlined below. […] The reaction mixture includes 50 mM HEPES buffer (pH 7.5), 1 mM calcium chloride, 150 mM sodium chloride, 0.1 mg/ml bovine serum albumin, and 1.7 mM dithiothreitol. To the reaction mixture was added the compound of the present invention and the substrate solution. The reaction was allowed to start by adding an enzyme and continued for 15 min at 37° C. The fatty acids released by the reaction were extracted by the method described in V. P. Dole, and H. Meinertz, J. Biol. Chem., 1960, 235, 2595-2599 and its radiation activity was measured on a liquid scintillation counter. Control was obtained by conducting the experiment in the same manner except that a compound of the present invention was not added.

The chains behind the UniProt entries cited, without tags or fusion partners.
UniProt P47712, whole entry: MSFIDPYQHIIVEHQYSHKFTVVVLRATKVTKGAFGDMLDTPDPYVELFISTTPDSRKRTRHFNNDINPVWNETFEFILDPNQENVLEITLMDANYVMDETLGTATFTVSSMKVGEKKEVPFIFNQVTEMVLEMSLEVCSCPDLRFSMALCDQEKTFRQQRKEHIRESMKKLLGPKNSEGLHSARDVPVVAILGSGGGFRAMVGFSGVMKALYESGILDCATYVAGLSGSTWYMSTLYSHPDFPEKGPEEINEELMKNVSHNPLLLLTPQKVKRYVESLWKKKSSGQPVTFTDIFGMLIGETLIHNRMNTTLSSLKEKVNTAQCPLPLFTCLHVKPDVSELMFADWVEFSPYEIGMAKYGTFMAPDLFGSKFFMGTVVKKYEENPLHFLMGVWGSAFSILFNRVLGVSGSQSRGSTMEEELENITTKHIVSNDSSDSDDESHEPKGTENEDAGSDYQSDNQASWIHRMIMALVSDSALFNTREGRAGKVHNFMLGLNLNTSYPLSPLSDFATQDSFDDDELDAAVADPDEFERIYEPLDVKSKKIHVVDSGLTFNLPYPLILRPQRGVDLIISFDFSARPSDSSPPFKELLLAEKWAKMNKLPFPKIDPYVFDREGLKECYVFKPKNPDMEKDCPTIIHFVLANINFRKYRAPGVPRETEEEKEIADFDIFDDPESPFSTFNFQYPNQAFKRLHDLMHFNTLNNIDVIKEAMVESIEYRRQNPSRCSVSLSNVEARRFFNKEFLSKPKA

The results in this text go back to patent publication US6924301B1, “Composition for treating or preventing arrhythmia” (Shionogi & Co., Ltd., priority 1999, dated 2005).

One may read the IC50 as the concentration that inhibits the measured activity by half. A low value points to inhibition by little substance.

`CC(C)CC(CC(C)C)N(CC(C)C)[C@@H]1C[C@@H](CNC(=O)c2ccc(/C=C3\SC(=O)NC3=O)cc2)N(C(=O)c2ccccc2C(=O)c2ccc(F)cc2F)C1` registered an IC50 of 6.7 nM. This counts as single-digit nanomolar.
